Data reported in patent US10682316B2, “Methods for fabrication of epinephrine bitartrate nanoparticles and epinephrine bitartrate nanoparticles fabricated thereby” (NOVA SOUTHEASTERN UNIVERSITY, priority 2010, dated 2020).

Test: Particle size measurement before and after size reduction (Mastersizer, NiComp 370, Zetasizer)
Type: physicochemical
Conditions: epinephrine base first sample in water, listed as epinephrine
Description: Nanoparticles were fabricated from epinephrine base and epinephrine bitartrate (Bit) using high energy fluidization (microfluidization) techniques. These techniques involve the use of oversaturated solutions of various solvents, particularly water and isopropanol, at various temperatures and pressures ranging from about 8,000 psi to 30,000 psi and to about 8.3° to 43.3° C. under various passes. Particle size was measured before and after size reduction using a Mastersizer (Malvern) and/or a NiComp 370 Submicron Particle Sizer (NiComp) and nano-sized particles were confirmed using laser diffraction techniques. The particles were lyophilized (freeze-dried) using a bench top lyophilizer (ART Inc.).

CNC[C@H](O)c1ccc(O)c(O)c1 [Epinephrine Base, epinephrine]
Size After Fabrication (110 F., 30 Kpsi) (nm): 273.9±179.0 nm
